Key:
Assay type in all cases: cell-based, human
[1] = tested on: AES-induced apoptosis in 293T cells; test: Caspase inhibitors and anti-apoptotic proteins against AES
Text: (§1) Results from these experiments indicated no increase of 85-kD PARP apoptotic fragment in the lysates, indicating lack of caspase activation. 293T cells were also co-transfected with Bit1 or AES and the caspase inhibitor proteins crmA and XIAP. […] A chemical pan-caspase inhibitor, z-VAD-fmk, was also ineffective against Bit1 and AES.

[2] = tested on: Bit1-induced apoptosis in 293T cells; test: Caspase inhibitors and anti-apoptotic proteins against Bit1; conditions: cytosolic Bit1
Text: as §1

[3] = tested on: Bit1-induced apoptosis in HEK 293 cells; test: Co-transfection of Bit1 with anti-apoptotic proteins; conditions: HEK 293 cells co-transfected with Bit1
Method: HEK 293 cells also were co-transfected with Bit1 and an activated form of PI3K, or Bcl-2 or Bcl-xL or one of various caspase inhibitors (XIAP, p35 or CrmA).
Co-transfections were performed with cells plated on non-coated dishes transfected with 5 μg Bit1 plasmid alone or together with 10 μg dominant negative (DN) R-Ras, or activated H-Ras plasmid (Zou et al., Proc. Natl. Acad. Sci. USA 96: 13813-13818 (1999)). Cells were transfected as described above with expression constructs pcDNA3-Bcl-2, Bcl-xL, p35, CrmA or XIAP provided by Dr. Guy Salvesen (The Burnham Institute), and described in Ryan et al., Immediate publication, DOI 10:1042/BJ20020863 (2002); Deveraux et al., EMBO J. 18:5242 (1999); and Cardone et al., Science 282: 1318 (1998). Expression of the transfected proteins was confirmed by immunoblotting. Apoptosis was assayed as described above.

With “XIAP: caspase inhibitor protein, transfected expression construct” the “effect on apoptosis induced by AES” value [1] was “no effect”, the “effect on apoptosis induced by Bit1” value [2] was “no effect” and the “effect on apoptosis induced by Bit1” value [3] was “little or no effect”.

From patent US8017326B2, “Methods of modulating cell death based on the Bit-1/AES regulatory pathway” (Sanford-Burnham Medical Research Institute, priority 2002, dated 2011)
